Data published in patent US8263590B2, “Pyrimidine derivatives” (priority 2003, dated 2012).

Tested on: Jurkat T human leukemic cell line
Assay: In vitro T cell migration assay
Type: cell-based
Conditions: read-out: T Cell Migration IC50

IC50: 230 nM
SMILES: CCCS(=O)(=O)c1ccccc1Nc1nc(Nc2cc(N3CCC(N4CCOCC4)CC3)ccc2OC)ncc1Cl
